PMC3745031 (Bioorganic & medicinal chemistry letters, 2012)

Test system: HDAC1, HDAC3, and HDAC6
Experiment: Isoform preference across HDAC1, HDAC3 and HDAC6
Format: biochemical
Details: 125 nM

## O=C(CCCCCCC(=O)Nc1ccccc1)NO [SAHA, Suberoylanilide hydroxamic acid]
  isoform preference in single-concentration screen: roughly equal inhibition against HDAC1, HDAC3, and HDAC6
